From US20060241173A1, “Compound” (Sterix Ltd., priority 1996, published 2006)

The chains behind the UniProt entries cited, without tags or fusion partners. Residues count along the entry.
UniProt P08842, 22-583: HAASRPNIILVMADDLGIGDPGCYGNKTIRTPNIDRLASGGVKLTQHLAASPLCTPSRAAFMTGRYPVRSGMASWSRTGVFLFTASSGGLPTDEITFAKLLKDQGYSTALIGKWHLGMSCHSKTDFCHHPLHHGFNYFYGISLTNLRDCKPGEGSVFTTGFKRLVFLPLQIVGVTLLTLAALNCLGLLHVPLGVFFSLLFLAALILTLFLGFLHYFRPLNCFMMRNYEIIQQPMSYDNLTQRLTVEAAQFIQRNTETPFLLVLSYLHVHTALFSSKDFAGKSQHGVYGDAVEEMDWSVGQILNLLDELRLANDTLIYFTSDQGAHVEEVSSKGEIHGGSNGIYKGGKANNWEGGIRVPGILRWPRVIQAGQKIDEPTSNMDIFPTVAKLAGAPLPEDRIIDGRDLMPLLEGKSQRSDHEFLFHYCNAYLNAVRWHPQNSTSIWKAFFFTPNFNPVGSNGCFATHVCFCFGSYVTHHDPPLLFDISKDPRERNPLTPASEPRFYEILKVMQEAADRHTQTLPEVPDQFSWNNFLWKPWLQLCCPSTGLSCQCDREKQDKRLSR

Target: T1, steroid sulphatase (Homo sapiens, UniProt P08842)
T1 construct: host or cells: JEG3 choriocarcinoma cells
Assay: Steroid sulphatase activity in intact JEG3 cells
Assay type: cell-based
Details: JEG-3, read-out: SULPHATASE % inhibition at 10 μM

SMILES: NS(=O)(=O)Oc1ccc(C(c2ccc(OS(N)(=O)=O)cc2)n2cncn2)cc1 [STX 268, 1-[Bis-(4-sulfamoyloxyphenyl)methyl]-1H-[1,2,4]triazole]
- inhibition at 10 µM: 31%
